One experiment relates to BxPC3 cells. In words: Cell Titer-Glo anti-proliferation, BxPC3 cells. The conditions noted are these: read-out: Anti-proliferative activity BxPC3 (IC50 class), 3 days. A general note: Cellular ATP, detected with luciferase, serves as a proxy for viable cell number.
The next experiment has as its system OVCAR-3 cells. In words: Cell Titer-Glo anti-proliferation, OVCAR-3 cells. To be noted: read-out: Anti-proliferative activity OVCAR-3 (IC50 class), 3 days.
In the next experiment the target is Wee1 protein (Homo sapiens (Human), UniProt P30291). In words: TR-FRET binding of compound to Wee1 protein and Tracer 178. To be noted: read-out: IC50, inhibitory activity against Wee1 kinase, Tracer 178. (In general: In TR-FRET formats the signal depends on donor and acceptor labels being close together.)
A further experiment concerns HUVEC cells. Kind of experiment: Cell Titer-Glo anti-proliferation, normal cells HUVEC. The conditions noted are these: read-out: IC50 HUVEC.
Another experiment has as its system HK2 cells. Kind of experiment: Cell Titer-Glo anti-proliferation, normal cells HK2. To be noted: read-out: IC50 HK2.
The test system of the next experiment is HT-29 cells. In words: Cell Titer-Glo anti-proliferation, HT-29 cells. The conditions noted are these: read-out: Anti-proliferative activity HT-29 (IC50 class), 3 days.

The chains behind the UniProt entries cited, without tags or fusion partners.
UniProt P30291, whole entry: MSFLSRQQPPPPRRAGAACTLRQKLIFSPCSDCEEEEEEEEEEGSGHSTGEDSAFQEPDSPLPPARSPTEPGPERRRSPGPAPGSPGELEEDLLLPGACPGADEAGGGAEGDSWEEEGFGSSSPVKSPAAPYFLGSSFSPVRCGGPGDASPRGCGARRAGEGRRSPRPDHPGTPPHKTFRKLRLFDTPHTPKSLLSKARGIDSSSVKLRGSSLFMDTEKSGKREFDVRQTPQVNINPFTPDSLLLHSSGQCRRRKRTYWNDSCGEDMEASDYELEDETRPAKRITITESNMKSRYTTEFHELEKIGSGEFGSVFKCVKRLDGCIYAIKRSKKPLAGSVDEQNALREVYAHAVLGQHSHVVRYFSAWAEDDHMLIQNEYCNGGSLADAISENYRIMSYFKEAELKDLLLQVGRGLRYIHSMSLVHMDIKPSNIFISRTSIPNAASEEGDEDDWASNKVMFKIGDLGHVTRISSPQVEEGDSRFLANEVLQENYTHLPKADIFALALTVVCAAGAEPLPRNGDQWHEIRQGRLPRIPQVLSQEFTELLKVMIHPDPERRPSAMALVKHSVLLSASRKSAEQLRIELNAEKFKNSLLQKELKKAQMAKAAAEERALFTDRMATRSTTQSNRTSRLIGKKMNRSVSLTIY

As usually defined, the IC50 is the concentration that inhibits the measured activity by half. Turning to `C=CCn1c(=O)c2cnc(Nc3ccc(N4CC5CN(C)CC5C4)cc3)nc2n1-c1ccc2c(n1)C(O)(C(F)(F)F)C1(CC2)CC1` (stereo not shown), the IC50 was 100 to 1000 nM in the experiment with BxPC3 cells; 100 to 1000 nM in the experiment with OVCAR-3 cells; 5 to 10 nM on Wee1 protein; 660 nM with HUVEC cells; 470 nM with HK2 cells; 100 to 1000 nM with HT-29 cells.
As to `[2H]C1(O)c2nc(-n3c4nc(Nc5ccc(N6CCN(C)CC6)cc5)ncc4c(=O)n3CC=C)ccc2CC12CC2` (stereo not shown), the half-inhibitory concentration (IC50) with BxPC3 cells is 1000 to 2000 nM; in the experiment on OVCAR-3 cells, 1000 to 2000 nM; at Wee1 protein it was below 5 nM; in the experiment on HT-29 cells, 1000 to 2000 nM.

For the origin of these results see patent US20250304587A1, “WEE1 INHIBITOR, PREPARATION THEREFOR AND USE THEREOF” (JIANGSU TASLY DIYI PHARMACEUTICAL CO., LTD., priority 2022, published 2025).
